Consider 27 compounds from PubChem BioAssay AID504891 (National Center for Advancing Translational Sciences (NCATS), 2011).

Protein sequences, listed by entry. Tags and fused reporters are not part of them.
UniProt Q13526, whole entry: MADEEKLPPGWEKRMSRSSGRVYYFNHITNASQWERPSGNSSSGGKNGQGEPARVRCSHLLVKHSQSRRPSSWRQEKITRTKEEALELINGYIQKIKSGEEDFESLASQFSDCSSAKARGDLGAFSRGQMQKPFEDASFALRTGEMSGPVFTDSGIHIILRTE

The entries are a selection whose mix differs from that of the whole data set. Inconclusive results are not listed. Active and inactive are the calls of the source. Calls follow the shape of the dose curve; as a rule, active = well fitted inhibition curve with a large enough effect in the polarisation, with a control signal flat (not every such curve was filed as active); inconclusive = small, poorly fitted or top-dose-only effect, or effect the other way, or a change in a side signal; inactive = no such curve, though single readings can be large or run the other way; the % refers to the polarisation.
% is scaled to controls: 0 for no effect and ±100 for the full control effect.

For the experiment, the target named is Peptidyl-prolyl cis-trans isomerase NIMA-interacting 1 (Homo sapiens) (UniProt Q13526). Briefly: qHTS Assay to Find Inhibitors of Pin1. The following applies: Pin1 FP peptide displacement, HiFluor488, 10 min; at 115 µM (top of the series). (In general: qHTS replaces the single test concentration by a dilution series.)
Regarding `O=C(NCC1(N2CCCCC2)CCCCC1)c1cccc(C(F)(F)F)c1`, the activity, negative = inhibition was inactive: -10%.
The value for `CCCOc1cccc(C(=O)NCC2(N3CCOCC3)CCCCC2)c1` was inactive: 0.77%; that for `O=[N+]([O-])c1cc([N+](=O)[O-])c(NCC2CCS(=O)(=O)C2)c([N+](=O)[O-])c1` (configuration not stated) was inactive: -5.23%.
The value for `CC(C)c1ccc(C(=O)NCC2(N3CCOCC3)CCCCC2)cc1` was inactive: -5.88%; that for `COc1ccc(NC2CCN(C(=O)OC(C)(C)C)CC2)cc1` was inactive: -3.51%.
Next, `CN1CCN(CCOC(=O)C(O)(c2ccccc2)c2ccccc2)CC1`: inactive: -0.246%; `O=C(NCC1(N2CCOCC2)CCCCC1)c1cc(=O)[nH]c2ccccc12`: inactive: -1.67%; `COc1cc(C(=O)NCC2(N3CCCCC3)CCCCC2)ccc1OC(F)F`: inactive: -3.83%.
Turning to `O=C(NCC1(N2CCCCC2)CCCCC1)c1ccc(OC(F)F)cc1`, the activity, negative = inhibition was inactive: -5.05%.
Next, `O=C(NCC1(N2CCCCC2)CCCCC1)c1cccc([N+](=O)[O-])c1`: inactive: 4.52%; `CCOc1ccc(C(=O)NCC2(N3CCOCC3)CCCCC2)cc1`: inactive: -0.794%; `CSc1ccc(C(=O)NCC2(N3CCOCC3)CCCCC2)cc1`: inactive: 0.103%.
Next, `N#CC1(Nc2ccccc2)CCN(CCc2ccccc2)CC1`: inactive: -2.55%.
Next, `CCN1CCC(Nc2ccc(Cl)cc2)CC1`: inactive: 3.7%; `O=C(NCC1(N2CCCCC2)CCCCC1)c1cncc(Br)c1`: inactive: -0.206%; `CN1CCC(Nc2cccc(F)c2)CC1`: inactive: -5.98%.
For `O=C(OC1CN2CCC1CC2)c1ccc([N+](=O)[O-])cc1` (configuration not stated), the activity, negative = inhibition was inactive: -3.19%.
Next, `CCCOc1ccc(C(=O)NCC2(N(C)C)CCCCC2)cc1OC`: inactive: -2.24%; `O=C(NCC1(N2CCOCC2)CCCCC1)c1ccccc1Br`: inactive: -0.028%; `CCCCOc1ccccc1C(=O)NCC1(N2CCOCC2)CCCCC1`: inactive: 0.169%.
For the compound `CN(C)c1cccc(C(=O)NCC2(N3CCCCC3)CCCCC2)c1`, the activity, negative = inhibition is inactive: -10.7%.
The value for `O=[N+]([O-])c1cc([N+](=O)[O-])c(OC2CCCCC2O)c([N+](=O)[O-])c1` (configuration not stated) was inactive: -0.158%; that for `COc1ccc(CN(CCCl)CCCl)cc1Cl` was inactive: -0.0571%; that for `CC(C)c1ccc(NC2CCN(C(=O)OC(C)(C)C)CC2)cc1` was inactive: 3.19%.
Next, `COc1cc(OC)c(C(=O)NCC2(N(C)C)CCCCC2)cc1OC`: inactive: -11.5%; `O=C(NCC1(N2CCOCC2)CCCCC1)c1cc2ccccc2o1`: inactive: 2.12%.
Next, `Cc1cc(C)cc(N(C(=O)c2ccccc2)C2CCN(C(=O)OC(C)(C)C)CC2)c1`: inactive: -2.98%.
